Binding of CDR-mutated scFvs to a peptide of the spike HR2 region

Target: peptide PDVDLGDISGINAS, taken from heptad repeat 2 (HR2) of SARS-CoV-2 spike.

Parent: Ab-14, a human scFv built as VH, three GGGGS repeats, VL. Only the CDRs of the light chain vary.
VH: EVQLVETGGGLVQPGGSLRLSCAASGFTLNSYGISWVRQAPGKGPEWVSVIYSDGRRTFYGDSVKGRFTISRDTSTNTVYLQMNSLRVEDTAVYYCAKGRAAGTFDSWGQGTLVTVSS
VL: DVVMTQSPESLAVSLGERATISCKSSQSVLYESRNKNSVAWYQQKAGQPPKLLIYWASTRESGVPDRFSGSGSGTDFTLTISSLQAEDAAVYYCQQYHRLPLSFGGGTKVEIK

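Library AAYL50 holds single substitutions and randomly drawn double and triple substitutions in the CDRs. The scFvs were displayed on barcoded MATa yeast, the peptide on MATalpha yeast. After mating in shaken culture at 30 °C for 16 h, diploids were selected and their barcode pairs sequenced. Scores were corrected for input abundance and mapped to Kd with protein pairs of known affinity run in the same pool. Mating was done three times.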

The parent's light chain CDRs are KSSQSVLYESRNKNSVA, WASTRES, QQYHRLPLS; each variant's own CDRs replace them letter for letter. This list gathers variants with a substitution at Q96 (VL, numbered from residue 1). The Kd shown is the geometric mean over detected replicates; a lower Kd is a better binder. A pair that was not seen in any replicate is written "not detected"; this usually means weak binding, but a binder can also be missed. Empty control strains, which show no peptide, gave a signal in 18% of pairings with library AAYL50; the median was 15 µM and 95% of these signals were weaker than 970 nM. No background was subtracted.

| CDR-L1 | CDR-L2 | CDR-L3 | Kd | seen in |
|---|---|---|---|---|
| KSSQSVLYESRNKNSVA | WASTRES | QWLHRLGLS | 7.1 nM | 3/3 |
| KSSQSVLTESRNKNSVA | WASTRES | QNYHRLPNS | 1.9 nM | 3/3 |
| KSSQSVLYESRNKNSVA | WASTRES | QNYHRLPTS | 160 nM | 2/3 |
| KSSQSVLYESRNINSVA | WASTRES | QICHRLPLS | not detected | 0/3 |
| KSSQIVLYESRNKNSYA | WASTRES | QLYHRLPLS | 270 µM | 3/3 |
| KSIQSVLYESRNKNSVA | WASTWES | QFYHRLPLS | not detected | 0/3 |
| KSSQSVLYESRNKNSVA | WASTRES | QSQHRLRLS | not detected | 0/3 |
| KSSQLVLYESRNKNSVA | WASTRES | QAVHRLPLS | 43 µM | 1/3 |
| KSSQSVLYESLNKNSVA | WAFTRES | QPYHRLPLS | 14 nM | 3/3 |
| KSSQSVLYESMNKNSVA | WASTRES | QVYLRLPLS | 270 nM | 3/3 |
| KVSQSILYESRNKNSVA | WASTRES | QVYHRLPLS | 9.4 nM | 3/3 |
| KSSQSVLYEFRNKNSVA | WASTRES | QEYHALPLS | 25 µM | 2/3 |
| KSSQSVLYESRYKNSVA | WASTRES | QSYHRFPLS | 16 nM | 3/3 |
| KSSQSVLPESRNKNSVA | WASSRES | QYYHRLPLS | 240 nM | 3/3 |
| KSSQSVLYESRNKNSVA | WASTRES | QKYHRLHLD | 2.5 µM | 1/3 |
| KSSQSVHYESRNKNSVA | WASRRES | QYYHRLPLS | 49 µM | 1/3 |
| KSSQSVLYESRNKNSVN | WESTRES | QPYHRLPLS | not detected | 0/3 |
| KSSQSVLYESENKNSVR | WASTRES | QYYHRLPLS | 120 µM | 2/3 |
| KSFQAVLYESRNKNSVA | WASTRES | QHYHRLPLS | not detected | 0/3 |
| KSSQSVLYESRNCNSVA | WASTRES | QHYHRLPLN | 5.3 µM | 1/3 |
| KSEQSVLYESRNKNSVA | WASTRWS | QRYHRLPLS | 6.2 µM | 3/3 |
| KSSQSVLYESGNKNSVA | CASTRES | QMYHRLPLS | 19 nM | 3/3 |
| KSSQSVLYESRNKNSNA | WASTRES | QAYHRLPLA | 580 µM | 3/3 |
| KSSQSVLYESRNKNSQA | WASTRES | QMYHRLRLS | 200 µM | 2/3 |
| KSSQSVLYPSRNKNSVA | WASTRES | QCYHRLPLS | 10 nM | 3/3 |
| KSSQSVLYESRGKNSVA | WASTRES | QRYHHLPLS | not detected | 0/3 |
| KSSQSVLCESRNKNSVA | WASTRES | QRYHRLPLS | 45 µM | 1/3 |
| KSSQSVLYESRNKNSVA | WASSRES | QLYHRLPLS | not detected | 0/3 |
| KSSQSVLYESRNKNHVA | WAKTRES | QGYHRLPLS | not detected | 0/3 |
| KSSQSVLYESRNKNSVA | WASTRES | HTYHRLPLD | 110 nM | 3/3 |
| KSSQSVLYESRDKNSVA | WASTRES | QSYHRLPLS | 21 nM | 3/3 |
| KSSQSVLYESRNKNSVF | WASTRES | QSYHRLPLE | not detected | 0/3 |
| KSSQSVLYESRNKFSVA | WASTRES | QCYHRNPLS | 24 nM | 3/3 |
| KSSMYVLYESRNKNSVA | WASTRES | QRYHRLPLS | 1.8 µM | 2/3 |
| KSSQSVLYESRNKNSYA | WASTRTS | QGYHRLPLS | not detected | 0/3 |
| KSSQSVWYERRNKNSVA | WASTRES | QVYHRLPLS | 28 nM | 3/3 |
| KPSQSVLYESFNKNSVA | WASTRES | QFYHRLPLS | 6.2 µM | 1/3 |
| KSEQSVLYESRNKNSVA | WASSRES | QHYHRLPLS | 480 µM | 1/3 |
| KSSQSVLYETRNKNSVA | WASTRES | QNYHRLPES | 690 nM | 1/3 |
| KSSQSVLYESRNKNSVA | WAVTRES | QDYHRLPLF | 6.4 µM | 3/3 |
| KSSQSVLKESRNKNSVA | WASHRES | QLYHRLPLS | 16 µM | 2/3 |
| KSSPSVCYESRNKNSVA | WASTRES | QCYHRLPLS | 90 nM | 1/3 |
| KSSQSVLYESENKNSVA | WASDRES | QFYHRLPLS | 410 nM | 3/3 |
| KSSQSVLYESPNKNSVA | WASTREY | QLYHRLPLS | 220 nM | 3/3 |
| KKSQLVLYESRNKNSVA | WASTRES | QYYHRLPLS | 2.7 µM | 3/3 |
| KSSQSVLYESRNKNSVA | WWSTRES | QHYHQLPLS | 7.5 µM | 1/3 |
| KSSQSVLYESRNKNSHA | NASTRES | QDYHRLPLS | 2.6 nM | 3/3 |
| KSSQSVLYESRNKNGVE | WASTRES | QHYHRLPLS | not detected | 0/3 |
| KSSQSVLYESRNKNSVA | WASTREH | QKYHRHPLS | not detected | 0/3 |
| KSSPIVLYESRNKNSVA | WASTRES | QPYHRLPLS | 11 µM | 1/3 |
| KSSQAVLYESRNKNSVA | WASTRHS | QIYHRLPLS | 7.8 µM | 3/3 |
| KSSQSVLYESRNKNSVA | WASTRMS | QRYHRLPLS | not detected | 0/3 |
| KSSTSVLYESRNKNRVA | WASTRES | QHYHRLPLS | 39 µM | 1/3 |

Reference: Engelhart et al. 2022, doi:10.1038/s41597-022-01779-4. File: FLAb, binding data.